The entries are a selection whose mix differs from that of the whole data set. Results with a measured potency or affinity are listed apart. Some of these compounds have results that are not shown, active ones among them. The source made the active and inactive calls. No rule for the calls is given here.

This note sets out measurements from PubChem BioAssay AID1850 (Southern Research Specialized Biocontainment Screening …, 2009).

The assay in a line: Inhibition of PhoP regulon, Salmonella typhi GFP reporter cells, confirmation, 4 h (AID 1850).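 Also: 0% = induced wells with vehicle and 100% = uninduced wells.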 The note with it: Salmonella Typhi PhoP-promoter GFP reporter, fluorescence, at 50 µM, stronger effect = higher value.
In the case of `O=C(OC1CN2CCC1CC2)C(CO)(c1ccccc1)c1ccccc1` (stereo not drawn), the inhibition is inactive: 0.69%.
Take `COc1ccc(Br)c(C(=O)NCC2(N3CCCCC3)CCCCC2)c1`: the inhibition was inactive: 8.48%.
With `CN(C)c1cccc(C(=O)NCC2(N(C)C)CCCCC2)c1`, the inhibition was inactive: -1.2%.
As for `CC(C)Oc1ccc(C(=O)NCC2(N(C)C)CCCCC2)cc1`, the inhibition was inactive: 3.31%.
As for `CN(C)C1(CNC(=O)c2ccc(Br)cc2)CCCCC1`, the inhibition was inactive: -4.79%.
`COc1cc(C(=O)NCC2(N(C)C)CCCCC2)c([N+](=O)[O-])cc1OC`: the inhibition was inactive: -7.63%.
Consider `COc1cccc(C(=O)NCC2(N3CCCCC3)CCCCC2)c1`, for which the inhibition is inactive: 12%.
For the molecule `COc1ccc(Cl)cc1C(=O)NCC1(N(C)C)CCCCC1`, the inhibition was inactive: -1.5%.
To `O=C(NCC1(N2CCCCC2)CCCCC1)c1cccc(Cl)c1` belongs inactive: 7.89%; to `Cc1ccccc1C(=O)NCC1(N2CCCCC2)CCCCC1`, inactive: -1.4%.
For `CN(C)c1ccc(C(=O)NCC2(N(C)C)CCCCC2)cc1`, the inhibition is inactive: 2.45%.
As for `CN(C)C1CCCC1OC(=O)C(O)(c1ccccc1)c1ccccc1` (stereo not drawn), the inhibition is inactive: 5.09%.
For `C=CCN1CCN(CCOC(=O)C(O)(c2ccccc2)c2ccccc2)CC1`, the inhibition is inactive: 3.28%.
With `O=C(NCC1(N2CCCCC2)CCCCC1)c1cc(F)c(F)cc1Cl`, the inhibition is inactive: 4.28%.
`CCN1CCCC(OC(=O)C2(O)c3ccccc3C=Cc3ccccc32)C1` (stereo not drawn): the inhibition is inactive: 5.29%.
With `Cc1cc(C(=O)NCC2(N3CCCCC3)CCCCC2)ccc1[N+](=O)[O-]`, the inhibition was inactive: -4.87%.
To `O=C(NCC1(N2CCCCC2)CCCCC1)c1cccc(Br)c1` belongs inactive: 1.53%; to `O=C(NCC1(N2CCCCC2)CCCCC1)c1cc([N+](=O)[O-])ccc1Cl`, inactive: -7.58%; to `CN1[C@@H]2CC[C@H]1CC(OC(=O)C(O)(c1ccccc1)c1ccccc1)C2` (stereo partly drawn), inactive: -0.85%.
For `CC(C)N1C(=O)CC2(CCN(CCOC(=O)C(O)(c3ccccc3)c3ccccc3)CC2)C1=O`, the inhibition is inactive: 11.8%.
With `CCN(CC)CC(C)C(C)OC(=O)C(O)(c1ccccc1)c1ccccc1` (stereo not drawn), the inhibition was inactive: -3.21%.
Consider `COc1cc(SC)ccc1C(=O)NCC1(N(C)C)CCCCC1`, for which the inhibition was inactive: -7.38%.
On to `Cc1ccc(C(=O)NCC2(N3CCCCC3)CCCCC2)cc1`, for which the inhibition is inactive: -0.08%.
